The IC50 is the concentration that gives 50% inhibition. Read a low IC50 as greater potency.

Protein sequences, listed by entry. Tags and fused reporters are not part of them.
UniProt P27487, whole entry, species assumed: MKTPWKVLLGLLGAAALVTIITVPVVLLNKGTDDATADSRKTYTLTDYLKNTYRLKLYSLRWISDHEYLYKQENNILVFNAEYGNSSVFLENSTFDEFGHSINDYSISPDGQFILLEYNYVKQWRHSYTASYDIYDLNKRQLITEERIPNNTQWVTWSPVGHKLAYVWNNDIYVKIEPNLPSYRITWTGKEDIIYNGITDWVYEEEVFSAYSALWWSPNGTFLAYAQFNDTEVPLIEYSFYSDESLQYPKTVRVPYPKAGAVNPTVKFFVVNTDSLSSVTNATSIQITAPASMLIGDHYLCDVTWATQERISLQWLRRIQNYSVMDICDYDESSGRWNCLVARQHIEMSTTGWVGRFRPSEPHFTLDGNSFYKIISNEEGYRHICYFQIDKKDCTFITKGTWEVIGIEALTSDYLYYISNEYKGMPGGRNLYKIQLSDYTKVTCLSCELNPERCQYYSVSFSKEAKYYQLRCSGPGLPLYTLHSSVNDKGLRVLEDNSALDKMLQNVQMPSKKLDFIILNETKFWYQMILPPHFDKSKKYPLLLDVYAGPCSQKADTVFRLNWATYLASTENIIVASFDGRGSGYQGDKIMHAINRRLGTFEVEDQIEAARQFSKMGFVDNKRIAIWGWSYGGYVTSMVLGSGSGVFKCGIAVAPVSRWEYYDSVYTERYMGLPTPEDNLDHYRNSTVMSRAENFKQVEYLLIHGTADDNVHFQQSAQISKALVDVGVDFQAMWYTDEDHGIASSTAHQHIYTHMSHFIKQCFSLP

The values that follow come from patent US20070037785A1, “Novel dipeptidyl peptidase IV inhibitors used for functionally influencing different cells and treating immunological, infammatory, neuronal, and other diseases” (priority 2003, published 2007).

This experiment concerns the target dipeptidyl peptidase IV (Homo sapiens, UniProt P27487). The experiment is described as follows: biochemical. The settings on record: IC50DPIV.

For the compound `CC(=O)CCc1oc2ccc([N+](=O)[O-])cc2c1-c1ccc(C)o1` [D3.031], the half-inhibitory concentration (IC50) was 25.4 µM.
